Reference: patent US20220305048A1, “USE OF HEPARIN TO PROMOTE TYPE 1 INTERFERON SIGNALING” (Dana-Farber Cancer Institute, Inc., priority 2019, published 2022)

How the values were obtained:
[1] = system: B16F10 mouse melanoma cells; Lewis Lung Carcinoma (LLC) mouse non-small-cell lung cancer cells; assay: CXCL10 ELISA of conditioned media, interferons +/- heparin; assay type: cell-based; settings: interferon 5 ng/mL +/- heparin 1 μg/mL, 24 hours
From the text: FIGS. 8A to 8D include plots and Western blots showing heparin enhances type I interferon effects but not interferon gamma effects. […] ANOVA p<0.0001. *p<0.05 ****p<0.0001 by Bonferroni corrected pairwise comparison.
This effect was not seen with IFNg.

[2] = system: B16F10 mouse melanoma cells; assay: CXCL10 ELISA of conditioned media; assay type: cell-based; settings: IFNb 1, 5, 10 and 100 ng/mL, heparin 1 μg/mL

B1: IFNb: interferon beta (R&D systems) (protein, UniProt P01574 22-187, looked up)
Interferon beta: MSYNLLGFLQRSSNFQCQKLLWQLNGRLEYCLKDRMNFDIPEEIKQLQQFQKEDAALTIYEMLQNIFAIFRQDSSSTGWNETIVENLLANVYHQINHLKTVLEEKLEKEDFTRGKLMSSLHLKRYYGRILHYLKAKEYSHCAWTIVRVEILRNFYFINRLTGYLRN
[1]
  amount of CXCL10 in the media with heparin compared to interferon alone: increase significantly
[2]
  amount of CXCL10 in the culture media in the presence vs absence of heparin, IFNb dose response: significantly higher amounts of CXCL10
